# CAL PDZ FP-1 = untagged CAL PDZ binding inhibitors, primary screen, biochemical, fluorescence polarization, HTS; inhibition, % at 24.9 µM; Golgi-associated PDZ and coiled-coil motif-containing protein (Homo sapiens), Q9HD26; purified CAL PDZ, TMR-peptide fluorescence polarization, 1 h; 300,000 compounds, 0.92% hits; AID 602252, 2012;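 active means mean inhibition of at least 30% with at least half of replicates also reaching 30%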;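 further: 0% = DMSO neutral control and 100% = excess unlabeled competitor peptide PRC23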
# CAL PDZ FP-2 = CAL PDZ peptide-binding inhibitors, primary screen, biochemical, fluorescence polarization, Cer-tagged CAL PDZ, HTS. Golgi-associated PDZ and coiled-coil motif-containing protein (Homo sapiens), Q9HD26. purified CAL PDZ, TMR-peptide fluorescence polarization, 1 h. inhibition, % at 20 µM. 330,000 compounds, 0.02% hits. AID 504414, 2011;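 active means highest replicate inhibition of at least 40%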;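 further: plate controls were DMSO neutral control wells for no effect and unlabeled competitor peptide control wells for full effect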
#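 Control set: unlabelled peptide and DMSO controls / Material: purified CerCALP PDZ construct / Timing: 1 h incubation at room temperature before polarization reading / Doses: 20 µM, one dose / Detection: fluorescence polarization (mP)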
# Dyrk1A ADPGlo = rat Dyrk1A kinase inhibitors, primary screen, biochemical, single point, plate reader; Dual specificity tyrosine-phosphorylation-regulated kinase 1A (Rattus norvegicus), Q63470; ADP-Glo luminescence, NFATc1 peptide; inhibition, % at 12.5 µM; 310,000 compounds, 0.43% hits; AID 504441, 2011; in the data active means inhibition above about 50%;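 further: plate controls were vehicle with enzyme for no effect and no enzyme for full effect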
# CDK5 inh = inhibitors of human CDK5/p35 kinase, primary screen, biochemical, single concentration | Cyclin-dependent kinase 5 (Homo sapiens) + Cyclin-dependent kinase 5 activator 1 (Homo … | Recombinant CDK5/p35, ADP-Glo luminescence, 60 min | inhibition, % at 10 µM | 330,000 compounds, 0.01% hits | AID 488839, 2010;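 active means highest replicate inhibition of at least 50% and at least 75% of replicates reaching 50%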;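 further: plate controls were DMSO neutral control for no effect and GW8510 at 10 µM for full effect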
# Yeast UUG start = modulators of yeast start codon fidelity, primary screen, whole organism, S. cerevisiae, single point, plate reader | AID 602363, 2012 | S. cerevisiae UUG-firefly luciferase reporter, luminescence/redox ratio | activity score, % at 18.7 µM | hit rate 0.13% among 350,000;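 active = replicate mean at a twofold rise or more, about +100% in these data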;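 also: firefly luciferase made from a UUG start codon reports start codon fidelity; reporter light over untreated wells divided by growth signal over untreated wells; some hits fall short of that in this replicate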
# dFosB act-1 = activators of delta FosB homodimer, primary screen, biochemical, fluorescence polarization, TAMRA-CDK5 oligo, single point; activation, % at 25 µM; purified delta FosB; percent of positive-control signal above neutral wells; AID 493131, 2011; 340,000 compounds, 0.99% hits;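 active means mean activation above about 17%, with every replicate also reaching it, limit read from the data, passing the limit was not always enough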
# dFosB act-2 = activators of mouse delta FosB DNA binding, confirmation, biochemical, fluorescence polarization, TAMRA-CDK5 oligo, cherry-picked samples | shares compounds with dFosB act-1 | purified delta FosB; normalised: neutral wells 0, positive control 100 | activation, % at 24.9 µM | 2,400 tested, under 10 active | AID 588690, 2011;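 active means highest replicate activation at or above 34% and every replicate reaching that threshold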;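 further: higher polarization means more probe DNA bound by delta FosB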
# * = called active by the depositor; . = not tested or not shown. An excerpt weighted towards active compounds, which were near 1.7% of everything screened.
# Short keys – A = CAL PDZ FP-1; B = CAL PDZ FP-2; C = Dyrk1A ADPGlo; D = CDK5 inh; E = Yeast UUG start; F = dFosB act-1; G = dFosB act-2
1. Cc1cc(C)c2oc(C(=O)Nc3ccc(S(=O)(=O)N4CCC(C)CC4)cc3)cc(=O)c2c1
  A = 0 | B = -2 | C = -2 | D = 0 | E = . | F = 23* | G = 1

2. CC(=O)Nc1ccc(NC(=O)c2cc(=O)c3cc(C)cc(C)c3o2)cc1
  A = 0 | B = -2 | C = -1 | D = 1 | E = -24 | F = 2 | G = .

3. C/C=C/c1ccc2c(c1)[C@H]1[C@H](CCN1C(=O)Cc1cccnc1)[C@H](CO)N2C
  A = . | B = . | C = . | D = . | E = -7 | F = . | G = .

4. CC(=O)c1cccc(NC(=O)CC2S/C(=N/N=C/c3ccccc3)NC2=O)c1 (configuration not stated)
  A = 6 | B = -1 | C = -4 | D = 1 | E = . | F = 49* | G = 3

5. CC(=O)c1cccc(NC(=O)CC2S/C(=N/N=C/c3cccs3)NC2=O)c1 (configuration not stated)
  A = -6 | B = -3 | C = 4 | D = 0 | E = . | F = 40* | G = -6

6. O=C(CC1S/C(=N/N=C/c2cccnc2)NC1=O)Nc1ccccc1 (configuration not stated)
  A = -4 | B = -1 | C = -4 | D = 0 | E = -3 | F = 2 | G = .

7. CCNC(=O)C[C@H]1CC[C@H]2[C@H](COc3ccc(NC(=O)Nc4cccc(C)c4)cc3C(=O)N2C)O1
  A = . | B = . | C = . | D = . | E = 6 | F = . | G = .

8. C[C@@H]1CN([C@@H](C)CO)S(=O)(=O)c2ccc(-c3ccccc3)cc2O[C@@H]1CN(C)C(=O)Cc1ccccc1
  A = . | B = . | C = . | D = . | E = 16 | F = . | G = .

9. COc1ccc(S(=O)(=O)Nc2ccc3c(c2)C(=O)N([C@@H](C)CO)C[C@H](C)[C@@H](CN(C)S(=O)(=O)c2ccc(OC)cc2)OCCCC[C@H](C)O3)cc1
  A = . | B = . | C = . | D = . | E = -13 | F = . | G = .

10. Cc1noc(C)c1NC(=O)N(C)C[C@@H]1OCCCC[C@@H](C)Oc2ccc(NC(=O)c3ccncc3)cc2C(=O)N([C@H](C)CO)C[C@H]1C
  A = . | B = . | C = . | D = . | E = 0 | F = . | G = .

# Record cards, from the list above. Values in the order: CAL PDZ FP-1 | CAL PDZ FP-2 | Dyrk1A ADPGlo | CDK5 inh | Yeast UUG start | dFosB act-1 | dFosB act-2
# Entry for CC(=O)Nc1ccc(NC(=O)c2cc(=O)c3cc(C)cc(C)c3o2)cc1 = 0 | -2 | -1 | 1 | -24 | 2 | .
# Entry for Cc1noc(C)c1NC(=O)N(C)C[C@@H]1OCCCC[C@@H](C)Oc2ccc(NC(=O)c3ccncc3)cc2C(=O)N([C@H](C)CO)C[C@H]1C = . | . | . | . | 0 | . | .
# Entry for Cc1cc(C)c2oc(C(=O)Nc3ccc(S(=O)(=O)N4CCC(C)CC4)cc3)cc(=O)c2c1 = 0 | -2 | -2 | 0 | . | 23* | 1

# Further entries follow:
# Short keys – A = CAL PDZ FP-1; B = CAL PDZ FP-2; C = Dyrk1A ADPGlo; D = CDK5 inh; E = Yeast UUG start; F = dFosB act-1; G = dFosB act-2
11. CCN(CC)CCN(C(=O)c1ccc2c(c1)CCCC2)c1nc2ccc(OC)cc2s1
  A = -3 | B = -2 | C = 12 | D = -1 | E = -5 | F = 23* | G = 1

12. CCN(CC)CCN(C(=O)c1ccc2c(c1)CCCC2)c1nc2c(C)cccc2s1
  A = -3 | B = 16 | C = -1 | D = 0 | E = 5 | F = 29* | G = -5

13. CCCC(=O)Nc1ccccc1-c1nnn(CC(=O)Nc2ccc(OCC)cc2)n1
  A = -3 | B = -1 | C = 3 | D = -1 | E = -3 | F = 41* | G = 4

14. CC1CCN(S(=O)(=O)c2ccc(NC(=O)Cn3nnc(-c4ccccc4F)n3)cc2)CC1
  A = -1 | B = -3 | C = . | D = 4 | E = -2 | F = 78* | G = 4

15. O=C(Cn1nnc(-c2ccccc2F)n1)NCCc1ccccc1
  A = . | B = 0 | C = 0 | D = 1 | E = -5 | F = -13 | G = .

16. CCOc1ccc(NC(=O)Cn2nnc(-c3ccccc3NC(=O)CC)n2)cc1
  A = -2 | B = 0 | C = -5 | D = 0 | E = . | F = 11 | G = .

17. O=C(Cn1nnc(-c2ccccc2NC(=O)c2ccccc2)n1)Nc1ccc2c(c1)OCCO2
  A = 0 | B = -1 | C = -7 | D = 2 | E = -12 | F = 44* | G = 2

18. O=C(Cn1nnc(-c2ccccc2F)n1)Nc1cccc2ncccc12
  A = -5 | B = -1 | C = . | D = 3 | E = 0 | F = 26* | G = 6

19. Cc1ccc(NC(=O)Cn2nnc(-c3ccccc3NC(=O)c3cccs3)n2)cc1
  A = -2 | B = -1 | C = -7 | D = 0 | E = -11 | F = 48* | G = 6

20. O=C(CSCc1ccc(Cl)cc1)N/N=C/c1c(Cl)cccc1Cl
  A = -2 | B = 0 | C = -2 | D = 1 | E = -2 | F = 27* | G = 1

21. COCC(=O)N1CCCCN2[C@H](CO)[C@@H](c3ccc(C#Cc4ccccc4)cc3)[C@@H]2C1
  A = . | B = . | C = . | D = . | E = -12 | F = . | G = .

22. COc1ccccc1CC(=O)Nc1ccc([N+](=O)[O-])cc1O
  A = -3 | B = 0 | C = 1 | D = 1 | E = . | F = 24* | G = -6

23. COc1ccccc1CC(=O)Nc1ccccc1O
  A = -2 | B = 0 | C = 8 | D = -3 | E = -12 | F = -3 | G = .

24. Cc1ccc(CCNC(=O)C2CCN(S(=O)(=O)c3cccc4nsnc34)CC2)cc1
  A = . | B = 1 | C = -2 | D = 0 | E = -13 | F = 33* | G = 2

25. COc1ccc(NC(=O)COC(=O)c2ccc(-n3cnnn3)cc2)cc1Cl
  A = -1 | B = -2 | C = 1 | D = 0 | E = -18 | F = 35* | G = -15

26. O=S(=O)(N[C@H]1CC[C@@H](CCn2cc(C3CC3)nn2)O[C@@H]1CO)c1ccc(F)cc1
  A = . | B = . | C = . | D = . | E = 13 | F = . | G = .

27. O=C(C[C@@H]1C/C=C\C[C@@H](Cc2ccc(F)cc2)C(=O)OC[C@@H](Cc2ccccc2)NC1=O)N[C@H](CO)Cc1ccccc1
  A = -5 | B = -1 | C = 2 | D = 0 | E = 2 | F = 32* | G = 5

28. C[C@@H]1COC(=O)[C@H](Cc2ccc(F)cc2)C/C=C\C[C@@H](CC(=O)N[C@H](CO)Cc2ccccc2)C(=O)N1
  A = 0 | B = 0 | C = 7 | D = -1 | E = -6 | F = 6 | G = .

29. C[C@@H]1CN([C@H](C)CO)C(=O)c2cc(NS(=O)(=O)c3cn(C)cn3)ccc2O[C@@H](C)CCCCO[C@H]1CN(C)Cc1ccccc1
  A = . | B = . | C = . | D = . | E = -3 | F = . | G = .

30. O=C(Nc1ccc(OC(=O)c2ccccc2)c(-c2nc3ccccc3s2)c1)c1ccccc1
  A = 0 | B = -1 | C = -2 | D = -1 | E = -5 | F = 18* | G = 6

31. C=CCn1c(=S)[nH]c2ccccc2c1=O
  A = 1 | B = 0 | C = -6 | D = 2 | E = -3 | F = 2 | G = .

32. C=CCn1c(=S)[nH]c2cc(-c3ccccc3)sc2c1=O
  A = -5 | B = -3 | C = -9 | D = 0 | E = -8 | F = 40* | G = 2

33. COCCn1c(SCC(=O)c2c(N)n(C3CC3)c(=O)[nH]c2=O)nnc1-c1ccc(Cl)cc1
  A = 3 | B = -1 | C = . | D = -1 | E = 6 | F = 21* | G = 1

34. COCCCn1c(SCC(=O)c2c(N)n(C3CC3)c(=O)[nH]c2=O)nnc1-c1ccccc1Cl
  A = . | B = . | C = . | D = . | E = 18 | F = . | G = .

35. CCOc1ccccc1CNC(=O)CCNC(=O)Cn1ccc2ccccc2c1=O
  A = 2 | B = 0 | C = 2 | D = 2 | E = -3 | F = 23* | G = 2

36. O=C(CCNC(=O)Cn1ccc2ccccc2c1=O)NCCc1ccc(Cl)cc1
  A = -4 | B = -2 | C = . | D = 2 | E = -11 | F = 33* | G = -7

37. CCOc1ccc(N(CC)C(=O)CCNC(=O)Cn2ccc3ccccc3c2=O)cc1
  A = -3 | B = -2 | C = -6 | D = 0 | E = 1 | F = -3 | G = .

38. Cc1noc(C)c1S(=O)(=O)N(C)C[C@H]1Oc2ccc(NC(=O)Nc3cccc4ccccc34)cc2CC(=O)N([C@@H](C)CO)C[C@@H]1C
  A = . | B = . | C = . | D = . | E = -23 | F = . | G = .

39. CSC1=N/C(=C\c2c(F)cccc2Cl)C(=O)S1
  A = -4 | B = -1 | C = -6 | D = 0 | E = . | F = 3 | G = .
